The IC50 is the concentration at which inhibition is half-maximal.

Amino acid sequences for entries named in this document (tags omitted).
UniProt Q99685, whole entry: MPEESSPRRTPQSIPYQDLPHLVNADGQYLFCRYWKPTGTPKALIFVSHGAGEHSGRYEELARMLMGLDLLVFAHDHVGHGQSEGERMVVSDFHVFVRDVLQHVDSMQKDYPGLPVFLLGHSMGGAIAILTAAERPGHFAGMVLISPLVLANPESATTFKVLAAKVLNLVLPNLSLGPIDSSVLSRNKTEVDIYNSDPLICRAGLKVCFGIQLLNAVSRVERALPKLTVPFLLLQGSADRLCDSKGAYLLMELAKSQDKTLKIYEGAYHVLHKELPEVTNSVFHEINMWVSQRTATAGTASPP

The experiment deals with MAGL (recombinant wild-type) (Homo sapiens (Human), UniProt Q99685). The experiment can be described thus: 4-NPA assay: MAGL inhibitory activity by hydrolysis of 4-nitrophenylacetate (absorbance at 405 nm). The conditions noted are these: read-out: IC50 MAGL; measured in 4-NPA assay (footnote [a]); 1 nM MAGL, 300 μM 4-nitrophenylacetate.

SMILES strings stand for the structures.

In the case of `CC(C)(C)c1coc(CC2CCN(C(=O)N3CC[C@H]4OCC(=O)N[C@H]4C3)CC2)n1`, the IC50 amounted to 5.7 µM.
